Among the data in ChEMBL document CHEMBL1148814, “Novel class of quinone-bearing polyamines as multi-target-directed ligands to combat Alzheimer's disease” (J Med Chem, 2007) are IC50 values, retold here.

Chains of the proteins cited; added tags and fusions are not shown.
UniProt P06276, whole entry: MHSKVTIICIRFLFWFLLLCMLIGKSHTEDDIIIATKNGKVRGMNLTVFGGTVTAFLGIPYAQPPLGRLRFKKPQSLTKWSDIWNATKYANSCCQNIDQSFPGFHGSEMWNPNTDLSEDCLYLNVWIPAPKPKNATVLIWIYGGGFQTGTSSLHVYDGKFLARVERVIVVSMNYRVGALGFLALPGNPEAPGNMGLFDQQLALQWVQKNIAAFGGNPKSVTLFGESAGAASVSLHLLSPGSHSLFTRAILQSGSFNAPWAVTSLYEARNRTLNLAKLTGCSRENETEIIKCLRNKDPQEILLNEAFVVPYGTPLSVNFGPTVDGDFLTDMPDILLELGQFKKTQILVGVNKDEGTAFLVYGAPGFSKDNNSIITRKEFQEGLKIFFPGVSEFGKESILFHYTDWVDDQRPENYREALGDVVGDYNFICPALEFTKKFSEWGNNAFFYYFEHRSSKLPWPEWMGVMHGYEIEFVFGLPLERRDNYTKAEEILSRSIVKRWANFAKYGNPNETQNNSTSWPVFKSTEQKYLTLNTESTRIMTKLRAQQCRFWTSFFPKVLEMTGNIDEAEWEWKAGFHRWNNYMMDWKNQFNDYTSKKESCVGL

The test concerns the target Cholinesterase (Homo sapiens, UniProt P06276).

One may read the IC50 as the concentration needed to halve the response being measured.

With `CCN(C)C(=O)Oc1cccc([C@H](C)N(C)C)c1` [RIVASTIGMINE], the IC50 worked out at 30.1 nM.
